Source: patent US11498903B2 (BRISTOL-MYERS SQUIBB COMPANY, priority 2017, dated 2022)
Like-named read-outs stand apart in the source and are kept apart here.

Sequences of proteins named here, by UniProt entry; tags and fusion partners are left off.
UniProt P35414, whole entry: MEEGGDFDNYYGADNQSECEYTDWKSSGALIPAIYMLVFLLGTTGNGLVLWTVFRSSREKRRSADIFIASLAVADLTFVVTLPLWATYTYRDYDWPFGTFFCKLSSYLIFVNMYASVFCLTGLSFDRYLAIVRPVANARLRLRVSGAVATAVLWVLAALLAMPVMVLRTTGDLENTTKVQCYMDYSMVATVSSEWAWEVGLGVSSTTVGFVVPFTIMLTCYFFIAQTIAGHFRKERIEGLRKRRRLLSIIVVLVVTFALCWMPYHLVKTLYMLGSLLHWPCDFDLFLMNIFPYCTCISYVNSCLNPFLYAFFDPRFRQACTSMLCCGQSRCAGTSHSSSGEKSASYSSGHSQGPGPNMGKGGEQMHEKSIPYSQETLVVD

Molecular target: APJ receptor (Homo sapiens, UniProt P35414)
Test: Intracellular cAMP accumulation assay (APJ hcAMP, HTRF)
Assay type: cell-based
Method: Intracellular cAMP Accumulation Assay
HEK293 cells stably expressing human APJ receptor were used to assess the activity of compounds. Cultured cells were detached and resuspended in the cAMP Homogeneous Time-Resolved Fluorescence (HTRF) assay buffer (Cisbio cat; #62AM4PEJ). The assay was performed in 384-well assay plates (Perkin-Elmer; cat #6008289) according to assay protocol provided by the manufacturer. Serial dilutions of a compound together with assay buffer containing […] IBMX and 2 μM forskolin were added to each well containing 5,000 cells and incubated for 30 minutes at room temperature. Subsequently, cAMP D2 reagent was added in the lysis buffer followed by the EuK antibody (Cisbio; cat #62AM4PEJ) and incubated for 60 min. The fluorescence emission ratio was measured using fluorometer. The intracellular cAMP concentrations (compound-stimulated inhibition of forskolin-mediated cAMP production) were calculated by extrapolation from a standard curve using known cAMP concentrations. The EC50 values were obtained by fitting the data to a sigmoidal concentration-response curve with variable slope. The maximal achievable inhibition of forskolin-induced cAMP levels (Ymax) for each compound was expressed as relative percentage of inhibition attained using pyroglutamated apelin-13 ((Pyrl)apelin-13) peptide, which was set to 100%.
The exemplified Examples disclosed below were tested in the APJ in vitro assays described above and were found having human APJ cyclic AMP (hcAMP) activity. Table 1 lists hcAMP EC50 values measured for the following examples. Ranges are as followε: A=0.0-10 nM; B=10.01-100 nM; C=101-500 nM.

[1] = read-out: APJ cAMP Human EC50, human APJ, cAMP, potency range class
[2] = read-out: APJ hcAMP EC50, Table 1, HEK293 cells stably expressing human APJ receptor, inhibition of forskolin-mediated cAMP production

CCCC(NC(=O)c1ccc(-c2c(Cl)cccc2-c2nc3ccccc3[nH]2)c(C(=O)O)c1)c1ccc(Cl)cc1 (stereo not drawn)
EC50 [1]: < 10 nM
EC50 [2]: < 10 nM

CCCC(NC(=O)c1ccc(-c2c(Cl)cccc2-c2nc3ccccc3[nH]2)c(C(=O)O)c1)c1ccc(F)cc1 (single isomer, unassigned) [Example 228]
EC50 [1]: < 10 nM
EC50 [2]: < 10 nM

CCCC(NC(=O)c1ccc(-c2c(Cl)cccc2-c2nc3ccccc3[nH]2)c(C(=O)O)c1)c1ccncc1 (stereo not drawn)
EC50 [1]: < 10 nM
EC50 [2]: < 10 nM
